The list shows a part of the results, in another mix than the full data. Results filed as inconclusive are left out. Active and inactive are the calls of the source. The call rests on the fitted dose curve; in most records, active means well fitted inhibition curve with a large enough effect; inconclusive means small, poorly fitted or top-dose-only effect; inactive means no such curve, though single readings can be large or run the other way.
On the % scale 0 is the no-effect control and ±100 the full control effect.

This assay in a line: qHTS for Inhibitors of TGF-b. Further: nearly all actives have a fitted effect of over 65% in size. As to conditions: HepG2 CAGA-GFP TGF-b/SMAD3 reporter, GFP fluorescence, 18 h, TGF-beta stimulated, 500 pg/mL final; at 46.1 µM (top of the series). (In qHTS, concentration-response curves come from the screen itself.)
Regarding `CCC(=O)N(c1ccccc1)C1(COC)CCN(CCn2nnn(CC)c2=O)CC1`, the activity, negative = inhibition was inactive: 2.05%. `CCC(=O)N(c1ccccc1)C1(COC)CCN(CCc2cccs2)CC1`: the activity, negative = inhibition was inactive: 4.06%.

The record behind these values is PubChem BioAssay AID588855 (National Center for Advancing Translational Sciences (NCATS), 2011).
